Measured values: patent US6660870B1, “2-acylaminobenzimidazole derivatives for treating glaucoma” (Alcon, Inc., priority 2000, dated 2003)

Chains of the proteins cited; added tags and fusions are not shown.
UniProt P14842, whole entry: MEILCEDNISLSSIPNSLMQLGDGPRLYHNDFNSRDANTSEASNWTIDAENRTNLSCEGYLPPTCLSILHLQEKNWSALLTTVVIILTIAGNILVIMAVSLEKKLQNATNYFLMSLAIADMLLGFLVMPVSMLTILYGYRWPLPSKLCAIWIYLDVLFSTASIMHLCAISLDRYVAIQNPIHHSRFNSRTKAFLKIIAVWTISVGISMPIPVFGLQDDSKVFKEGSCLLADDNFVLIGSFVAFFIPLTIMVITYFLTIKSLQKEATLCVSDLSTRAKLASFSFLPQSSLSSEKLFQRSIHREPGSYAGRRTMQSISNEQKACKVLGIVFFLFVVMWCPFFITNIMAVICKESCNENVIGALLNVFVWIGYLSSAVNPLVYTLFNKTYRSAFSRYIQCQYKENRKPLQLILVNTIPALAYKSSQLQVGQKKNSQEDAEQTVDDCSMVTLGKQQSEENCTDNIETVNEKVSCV

Biological target: T1, 5-HT2 receptor (Rattus norvegicus, UniProt P14842)
T1 construct: A7r5 rat vascular smooth muscle cells; endogenous in cells; host or cells: A7r5 rat vascular smooth muscle cells
Assay: 5-HT2 Functional Assay: Phosphoinositide (PI) Turnover Assay
Format: cell-based
Conditions: A7r5 cells, relative to 5-HT (set at 100%)
Experimental: 5-HT2 Functional Assay: Phosphoinositide (PI) Turnover Assay
The relative agonist activity of serotonergic compounds at the 5-HT2 receptor can be determined in vitro using the ability of the compounds to stimulate the production of [^3H]inositol phosphates in [^3H]myo-inositol-labeled A7r5 rat vascular smooth muscle cells by their ability to activate the enzyme phospholipase C. These cells are grown in culture plates, maintained in a humidified atmosphere of 5% CO2 and 95% air and fed semi-weekly with Dulbecco's modified Eagle medium (DMEM) containing 4.5 g/l glucose and supplemented with 2 mM glutamine, 10 μg/ml gentamicin, and 10% fetal bovine serum. For the purpose of conducting the phosphoinositide (PI) turnover experiments, the A7r5 cells are cultured in 24-well plates as previously [J. Pharmacol. Expt. Ther., 286, 411 (1998)]. Confluent cells are exposed for 24-30 hrs to 1.5 μCi [^3H]-myo-inositol (18.3 Ci/mmol) in 0.5 ml of serum-free medium. […] The eluate (4 ml) is collected, mixed with 15 ml scintillation fluid, and the total [^3H]-IPs determined by scintillation counting on a beta-counter. Concentration-response data are analyzed by the sigmoidal fit function of the Origin Scientific Graphics software (Microcal Software, Northampton, Mass.) to determine agonist potency (EC50 value) and efficacy (Emax). […]

Compound: COc1cc(C[C@@H](C)N)c(OC)cc1I [(R)-DOI]
- Efficacy (Emax, %): 82%
